# Assay results published in paper PMC6282106, “Commercial drugs containing flavonoids are active in mice with malaria and in vitro against chloroquine-resistant Plasmodium falciparum” (Memórias do Instituto Oswaldo Cruz, 2018).
# Tested on: BGM cell line
# Settings: 24 h, MTT, mean of 3-5 experiments
smiles,measurement,value
[Se] [Selenium],"MDL50 (minimum lethal dose for 50% of cells), mean ± SD",≥ 1000 µg/mL
